Experimental findings from ChEMBL document CHEMBL1139550, “1-Acyl-1H-[1,2,4]triazole-3,5-diamine analogues as novel and potent anticancer cyclin-dependent kinase inhibitors: synthesis and evaluation of biological activities” (J Med Chem, 2005) are described below.

Protein sequences, listed by entry. Tags and fused reporters are not part of them.
UniProt P35968, whole entry: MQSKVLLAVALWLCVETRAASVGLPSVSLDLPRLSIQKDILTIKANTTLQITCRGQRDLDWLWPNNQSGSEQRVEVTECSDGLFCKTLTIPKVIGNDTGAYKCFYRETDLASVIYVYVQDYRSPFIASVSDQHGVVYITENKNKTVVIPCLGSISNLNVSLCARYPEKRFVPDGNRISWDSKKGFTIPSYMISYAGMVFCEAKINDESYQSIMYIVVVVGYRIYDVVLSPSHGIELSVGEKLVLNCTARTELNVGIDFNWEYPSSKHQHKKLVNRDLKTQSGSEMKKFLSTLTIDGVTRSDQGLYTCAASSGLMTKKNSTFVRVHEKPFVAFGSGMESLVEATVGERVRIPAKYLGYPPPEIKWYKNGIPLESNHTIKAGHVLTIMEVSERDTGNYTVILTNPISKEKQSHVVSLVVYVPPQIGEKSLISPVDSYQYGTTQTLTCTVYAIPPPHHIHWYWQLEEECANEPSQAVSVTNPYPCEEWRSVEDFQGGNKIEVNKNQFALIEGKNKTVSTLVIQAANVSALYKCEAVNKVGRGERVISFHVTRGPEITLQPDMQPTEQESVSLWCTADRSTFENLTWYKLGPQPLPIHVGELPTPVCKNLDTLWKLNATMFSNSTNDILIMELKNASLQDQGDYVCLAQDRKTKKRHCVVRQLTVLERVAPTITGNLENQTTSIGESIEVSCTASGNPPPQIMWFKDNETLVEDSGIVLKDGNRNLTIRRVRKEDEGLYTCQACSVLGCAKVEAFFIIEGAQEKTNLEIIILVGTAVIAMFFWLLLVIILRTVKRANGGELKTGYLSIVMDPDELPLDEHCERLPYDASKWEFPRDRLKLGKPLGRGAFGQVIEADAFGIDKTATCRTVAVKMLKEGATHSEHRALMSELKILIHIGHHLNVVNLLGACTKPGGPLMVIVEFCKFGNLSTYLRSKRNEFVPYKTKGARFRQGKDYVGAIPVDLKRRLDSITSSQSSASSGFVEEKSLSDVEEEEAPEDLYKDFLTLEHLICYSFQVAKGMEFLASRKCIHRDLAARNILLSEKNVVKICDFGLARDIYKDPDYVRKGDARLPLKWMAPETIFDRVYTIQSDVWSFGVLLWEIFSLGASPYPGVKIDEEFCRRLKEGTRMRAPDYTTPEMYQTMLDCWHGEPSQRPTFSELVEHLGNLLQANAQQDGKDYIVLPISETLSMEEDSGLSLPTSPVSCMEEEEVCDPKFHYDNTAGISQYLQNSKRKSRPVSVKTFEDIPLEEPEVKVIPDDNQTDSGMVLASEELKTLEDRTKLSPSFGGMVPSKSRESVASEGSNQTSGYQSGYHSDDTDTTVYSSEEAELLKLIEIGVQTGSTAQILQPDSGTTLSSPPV

Each structure is given as a SMILES string.

The assay has as its target Vascular endothelial growth factor receptor 2 (Homo sapiens, UniProt P35968). Description: Inhibition of Vascular endothelial growth factor receptor 2.

One may read the IC50 as the midpoint of a concentration-inhibition curve. A high value points to weaker potency. In turn, `Nc1nc(Nc2ccc(S(N)(=O)=O)cc2)nn1C(=S)Nc1c(F)cccc1F` yielded a half-maximal inhibitory concentration (IC50) of 32 nM.

As to `Cc1ccsc1C(=O)n1nc(Nc2ccc(S(N)(=O)=O)cc2)nc1N`, the concentration for half-maximal inhibition (IC50) was 51 nM.
